Assay results from US20260053861A1, “CELL COMPOSITIONS AND METHODS OF USING THE SAME” (THE REGENTS OF THE UNIVERSITY OF CALIFORNIA, priority 2022, published 2026).

Tested on: hPSC-SCs
Experiment: High-throughput screening assay for drugs reversing glucose-mediated SC cytotoxicity (Prestwick library; viable cell count, z-score)
Conditions: HTS viability of hPSC-SCs in the presence of 30 mM glucose, Table S4

`NC(=O)Nc1ccc([As](=O)(O)O)cc1` was tested, and the z.score.t was −1.346.
